The values below come from PubChem BioAssay AID2810 (NMMLSC, 2010).

The list shows a part of the results, in another mix than the full data. Calls of active or inactive are those of the source.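 Rule for the calls: active = at either tested dose, response and 90th-percentile vesicle-stain brightness of CD8 cells under set limits and under 9% cells vesicle-bound; inactive = the rest.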

The nature of the test: modulators of CD8 T cell-vesicle binding, confirmation, cherry-picked primary hits, two concentrations (AID 2810).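 Note: ratio of mean FL2 vesicle stain of CD8+ cells to that row's control; lower values mean blocking of vesicle binding.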 The conditions noted are these: 2C CD8+ T cell-vesicle binding, flow cytometry; at 15.4 µM; active compounds read low. (In general: In flow cytometry, cells or beads pass a laser one at a time.)
Turning to `CCOC(=O)c1ccc(NP(C)(=O)Oc2ccccc2)cc1` (configuration not stated), the percent response (vesicle binding) was inactive: 220%.
For `COc1ccccc1OP(C)(=O)Nc1c(C)cccc1C` (configuration not stated) the value was inactive: 160%.
